# Laboratory results reported in patent US9073855B2, “BCL-2 selective apoptosis-inducing agents for the treatment of cancer and immune diseases” (AbbVie Inc., priority 2008, dated 2015).
# Protein sequences, listed by entry. Tags and fused reporters are not part of them.
# UniProt P10415, whole entry: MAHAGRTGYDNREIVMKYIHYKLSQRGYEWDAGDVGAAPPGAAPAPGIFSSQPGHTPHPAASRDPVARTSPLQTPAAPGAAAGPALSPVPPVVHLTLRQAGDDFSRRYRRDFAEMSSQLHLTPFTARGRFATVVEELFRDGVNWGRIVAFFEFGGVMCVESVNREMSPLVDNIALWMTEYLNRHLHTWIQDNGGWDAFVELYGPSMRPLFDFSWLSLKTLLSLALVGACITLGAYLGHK
# Target: GST-Bcl-2 (Homo sapiens, UniProt P10415)
# Assay: TR-FRET binding assay, GST-Bcl-2 with F-Bak peptide probe
# Procedure: Tb-anti-GST antibody was purchased from Invitrogen (Catalog No. PV4216).
# Representative compounds were serially diluted in dimethyl sulfoxide (DMSO) starting at 50 μM (2× starting concentration; 10% DMSO) and 10 μL were transferred into a 384-well plate.
# The samples were then mixed on a shaker for 1 minute and incubated for an additional 3 hours at room temperature. For each assay, the probe/antibody and protein/probe/antibody were included on each assay plate as negative and positive controls, respectively. Fluorescence was measured on the ENVISION plate reader (Perkin Elmer) using a 340/35 nm excitation filter and 520/525 (F-Bak peptide) and 495/510 nm (Tb-labeled […] antibody) emission filters.
# The inhibition constant (Ki) is the dissociation constant of an enzyme-inhibitor complex or a protein/small molecule complex, wherein the small molecule is inhibiting binding of one protein to another protein or peptide. […] Inhibition constants were determined using Wang's equation (Wang Z-X., An Exact Mathematical Expression For Describing Competitive Binding Of Two Different Ligands To A Protein Molecule. FEBS Lett. 1995, 360:111-4).
# [1] = ratio of TR-FRET Ki values, Bcl-XL over Bcl-2
# [2] = TR-FRET, Bcl-XL Ki divided by Bcl-2 Ki
Compound,Binding selectivity ratio (Bcl-XL Ki/Bcl-2 Ki) [1],Binding selectivity ratio (Bcl-XL Ki/Bcl-2 Ki) [2]
"CC1(C)CCC(CN2CCN(c3ccc(C(=O)NS(=O)(=O)c4cnc(OCC5(F)CCOCC5)c(C#N)c4)c(Oc4cccc5[nH]ncc45)c3)CC2)=C(c2ccc(Cl)cc2)C1 [Example 406, 4-(4-{[2-(4-chlorophenyl)-4,4-dimethylcyclohex-1-en-1-yl]methyl}piperazin-1-yl)-N-({5-cyano-6-[(4-fluorotetrahydro-2H-pyran-4-yl)methoxy]pyridin-3-yl}sulfonyl)-2-(1H-indazol-4-yloxy)benzamide]",1263.8,
"CC1(C)CCC(CN2CCN(c3ccc(C(=O)NS(=O)(=O)c4cnc(OCC5(F)CCOCC5)c(C(F)(F)F)c4)c(Oc4cccc5[nH]ncc45)c3)CC2)=C(c2ccc(Cl)cc2)C1 [Example 410, 4-(4-{[2-(4-chlorophenyl)-4,4-dimethylcyclohex-1-en-1-yl]methyl}piperazin-1-yl)-N-{[6-[(4-fluorotetrahydro-2H-pyran-4-yl)methoxy]-5-(trifluoromethyl)pyridin-3-yl]sulfonyl}-2-(1H-indazol-4-yloxy)benzamide]",1838.6,
"CO[C@H]1CC[C@H](COc2ncc(S(=O)(=O)NC(=O)c3ccc(N4CCN(CC5=C(c6ccc(Cl)cc6)CC(C)(C)CC5)CC4)cc3Oc3cccc4[nH]ncc34)cc2Cl)CC1 [Example 414, Trans-N-({5-chloro-6-[(4-methoxycyclohexyl)methoxy]pyridin-3-yl}sulfonyl)-4-(4-{[2-(4-chlorophenyl)-4,4-dimethylcyclohex-1-en-1-yl]methyl}piperazin-1-yl)-2-(1H-indazol-4-yloxy)benzamide]",13930.5,
"CC1(C)CCC(CN2CCN(c3ccc(C(=O)NS(=O)(=O)c4cnc(OCC5(F)CCOCC5)c(F)c4)c(Oc4cccc5[nH]ncc45)c3)CC2)=C(c2ccc(Cl)cc2)C1 [Example 416, 4-(4-{[2-(4-chlorophenyl)-4,4-dimethylcyclohex-1-en-1-yl]methyl}piperazin-1-yl)-N-({5-fluoro-6-[(4-fluorotetrahydro-2H-pyran-4-yl)methoxy]pyridin-3-yl}sulfonyl)-2-(1H-indazol-4-yloxy)benzamide]",2569.0,
"CC1(C)CCC(CN2CCN(c3ccc(C(=O)NS(=O)(=O)c4ccc(N[C@@H]5CCN(C(CF)CF)C5)c([N+](=O)[O-])c4)c(Oc4cccc5[nH]ncc45)c3)CC2)=C(c2ccc(Cl)cc2)C1 [Example 435, 4-(4-{[2-(4-chlorophenyl)-4,4-dimethylcyclohex-1-en-1-yl]methyl}piperazin-1-yl)-N-{[4-({(3R)-1-[2-fluoro-1-(fluoromethyl)ethyl]pyrrolidin-3-yl}amino)-3-nitrophenyl]sulfonyl}-2-(1H-indazol-4-yloxy)benzamide]",1935.1,
"CC1(C)CCC(CN2CCN(c3ccc(C(=O)NS(=O)(=O)c4ccc(NC5CCN(C6CC6)CC5)c([N+](=O)[O-])c4)c(Oc4cccc5[nH]ncc45)c3)CC2)=C(c2ccc(Cl)cc2)C1 [Example 436, 4-(4-{[2-(4-chlorophenyl)-4,4-dimethylcyclohex-1-en-1-yl]methyl}piperazin-1-yl)-N-({4-[(1-cyclopropylpiperidin-4-yl)amino]-3-nitrophenyl}sulfonyl)-2-(1H-indazol-4-yloxy)benzamide]",,590.9
"CC1(C)CCC(CN2CCN(c3ccc(C(=O)NS(=O)(=O)c4ccc(OCC5COCCO5)c([N+](=O)[O-])c4)c(Oc4cccc5[nH]ncc45)c3)CC2)=C(c2ccc(Cl)cc2)C1 (stereo not drawn) [Example 447, 4-(4-{[2-(4-chlorophenyl)-4,4-dimethylcyclohex-1-en-1-yl]methyl}piperazin-1-yl)-N-{[4-(1,4-dioxan-2-ylmethoxy)-3-nitrophenyl]sulfonyl}-2-(1H-indazol-4-yloxy)benzamide]",,2373.1
"CN1CCC(CNc2ccc(S(=O)(=O)NC(=O)c3ccc(N4CCN(CC5=C(c6ccc(Cl)cc6)CC(C)(C)CC5)CC4)cc3Oc3cccc4[nH]cnc34)cc2[N+](=O)[O-])CC1 [Example 454, 2-(1H-benzimidazol-4-yloxy)-4-(4-{[2-(4-chlorophenyl)-4,4-dimethylcyclohex-1-en-1-yl]methyl}piperazin-1-yl)-N-[(4-{[(1-methylpiperidin-4-yl)methyl]amino}-3-nitrophenyl)sulfonyl]benzamide]",,735.2
"CC1(C)CCC(CN2CCN(c3ccc(C(=O)NS(=O)(=O)c4ccc(NC[C@H]5CC[C@H](C#N)CC5)c([N+](=O)[O-])c4)c(Oc4cccc5[nH]cnc45)c3)CC2)=C(c2ccc(Cl)cc2)C1 [Example 462, Trans-2-(1H-benzimidazol-4-yloxy)-4-(4-{[2-(4-chlorophenyl)-4,4-dimethylcyclohex-1-en-1-yl]methyl}piperazin-1-yl)-N-[(4-{[(4-cyanocyclohexyl)methyl]amino}-3-nitrophenyl)sulfonyl]benzamide]",,710.8
